# Source: PubChem BioAssay AID2540 (Sanford-Burnham Center for Chemical Genomics, 2010)
# Chains of the proteins cited; added tags and fusions are not shown.
# UniProt Q96LD8, whole entry: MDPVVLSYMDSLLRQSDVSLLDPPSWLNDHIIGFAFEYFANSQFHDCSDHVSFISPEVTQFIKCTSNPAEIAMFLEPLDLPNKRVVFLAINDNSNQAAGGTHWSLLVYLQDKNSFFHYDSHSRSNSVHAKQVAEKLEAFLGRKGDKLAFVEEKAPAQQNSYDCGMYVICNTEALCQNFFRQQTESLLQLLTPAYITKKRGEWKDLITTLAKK
# The list shows a part of the results, in another mix than the full data. Some tests of the compounds listed are not included; inactive here does not mean inactive elsewhere. Activity calls are given as the source filed them. Cut-off read from the data, not from the text of the source: active = inhibition above about 50%; inactive = the rest.
# Molecular target: Sentrin-specific protease 8 (Homo sapiens) (UniProt Q96LD8)
# Assay: SENP8 protease inhibitors, primary screen, biochemical, luminescence (AID 2540)
# Details: purified SENP8, Z-RLRGG-aminoluciferin cleavage, at 10 µM, stronger effect = higher value
row,SMILES,inhibition
1,CN(C)C1CCCC1OC(=O)C(O)(c1ccccc1)c1ccccc1 (centres undefined),inactive: -6.25%
2,CN(C)c1ccc(C(=O)NCC2(N(C)C)CCCCC2)cc1,inactive: 1.19%
3,Cc1ccccc1C(=O)NCC1(N2CCCCC2)CCCCC1,inactive: -2.15%
4,O=C(NCC1(N2CCCCC2)CCCCC1)c1cccc(Br)c1,inactive: -3.76%
5,Cc1cc(C(=O)NCC2(N3CCCCC3)CCCCC2)ccc1[N+](=O)[O-],inactive: -4.46%
6,CCN1CCCC(OC(=O)C2(O)c3ccccc3C=Cc3ccccc32)C1 (centres undefined),inactive: -4.81%
7,COc1ccc(C(=O)NCC2(N(C)C)CCCCC2)cc1,inactive: 6.82%
8,O=C(NCC1(N2CCCCC2)CCCCC1)c1cc(F)c(F)cc1Cl,inactive: -0.964%
9,C=CCN1CCN(CCOC(=O)C(O)(c2ccccc2)c2ccccc2)CC1,inactive: -9.81%
10,CN1[C@@H]2CC[C@H]1CC(OC(=O)C(O)(c1ccccc1)c1ccccc1)C2 (some centres undefined),inactive: 11.5%
11,O=C(NCC1(N2CCCCC2)CCCCC1)c1cc([N+](=O)[O-])ccc1Cl,inactive: -0.09%
12,Cc1ccc(C(=O)NCC2(N3CCCCC3)CCCCC2)cc1,inactive: 4.93%
13,CC(C)N1C(=O)CC2(CCN(CCOC(=O)C(O)(c3ccccc3)c3ccccc3)CC2)C1=O,inactive: -0.085%
14,COc1cc(SC)ccc1C(=O)NCC1(N(C)C)CCCCC1,inactive: 3.54%
15,CCN(CC)CC(C)C(C)OC(=O)C(O)(c1ccccc1)c1ccccc1 (centres undefined),inactive: 5.42%
16,O=C(OC1CN2CCC1CC2)C(CO)(c1ccccc1)c1ccccc1 (centres undefined),inactive: 0.572%
17,CN(C)c1cccc(C(=O)NCC2(N(C)C)CCCCC2)c1,inactive: 3.41%
18,CC(C)Oc1ccc(C(=O)NCC2(N(C)C)CCCCC2)cc1,inactive: -0.453%
19,COc1ccc(Br)c(C(=O)NCC2(N3CCCCC3)CCCCC2)c1,inactive: -4.43%
20,COc1cc(C(=O)NCC2(N(C)C)CCCCC2)c([N+](=O)[O-])cc1OC,inactive: -6.06%
21,CN(C)C1(CNC(=O)c2ccc(Br)cc2)CCCCC1,inactive: 0.886%
22,O=C(NCC1(N2CCCCC2)CCCCC1)c1cccc(Cl)c1,inactive: -2.04%
23,COc1ccc(Cl)cc1C(=O)NCC1(N(C)C)CCCCC1,inactive: -5.9%
24,COc1cccc(C(=O)NCC2(N3CCCCC3)CCCCC2)c1,inactive: -1.22%
